Measured values taken from US20260008758A1, “LINEAR DIPEPTIDYL PEPTIDASE 1 INHIBITORS AND USES THEREOF” (Insmed Incorporated, priority 2024, published 2026).
Where two headings read alike, the source gives them in different places.

By UniProt entry, the sequences of proteins in these tests, tags left out. Residues count along the entry.
UniProt P53634, 395-463: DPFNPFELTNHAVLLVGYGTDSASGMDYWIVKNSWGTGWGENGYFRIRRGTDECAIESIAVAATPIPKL
UniProt P53634, 25-134: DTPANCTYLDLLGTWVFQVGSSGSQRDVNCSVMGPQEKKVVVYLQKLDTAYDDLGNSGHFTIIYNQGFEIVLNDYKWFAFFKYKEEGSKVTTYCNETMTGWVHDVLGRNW
UniProt P53634, 231-394: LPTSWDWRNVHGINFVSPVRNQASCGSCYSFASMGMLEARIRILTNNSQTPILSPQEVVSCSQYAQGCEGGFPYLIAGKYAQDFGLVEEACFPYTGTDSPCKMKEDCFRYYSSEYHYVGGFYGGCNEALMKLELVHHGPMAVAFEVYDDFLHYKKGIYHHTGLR

Key:
human DPP1 enzyme = human DPP1 enzyme (Homo sapiens (Human), UniProt P53634); test: Human DPP1 enzyme IC50 assay; format: biochemical
Protocol: Test articles were applied to activated human DPP1 enzyme in Assay Buffer (25 mM MES pH 6.0, 50 mM NaCl, 5 mM DTT) in a total reaction volume of 125 μL. 25 μL of compound in Assay Buffer plus 5% DMSO was first added to 50 μL of activated human DPP1 enzyme at a concentration of 1 ng/μL and allowed to pre-incubate for 10 minutes at 37° C. after which 50 μL of 1000 μM H-Gly-Arg-AMC substrate (Bachem; St. Torrance, CA) was added, giving final substrate concentration of 400 μM and a final DMSO concentration of 1%. Substrate cleavage was measured for 90 minutes at 37° C., with fluorescence at Excitation/Emission 350/450 nm measured every 5 minutes. DPP1 concentration was interpolated based on its activity relative to a standard curve of activated human recombinant DPP1 enzyme. IC50 values for each compound were calculated via the XLFit (IDBS Version 5.3.1.3) Add-On to Microsoft Excel using the four parameter fit equation y={A+[(B-A)]/[1+((C/x)^D)]}, which appears as equation number 205 (4 Parameter Logistic Model or Sigmoidal Dose-Response Model) in XLFit. Default constraints were used for each Parameter. IC50 was defined as the compound concentration at which 50% of enzyme activity was inhibited when compared to the no-compound control.

DPP1 in HL-60 cells = DPP1 in HL-60 cells (Homo sapiens (Human), UniProt P53634); test: DPP1 Cell IC50 assay; format: cell-based; conditions: H-Gly-Phe-AFC substrate, 60 min pre-incubation
Protocol: Media was changed every three to four days and cells were not allowed to exceed 1×10^6 cells per mL. Prior to assay, cells were collected by centrifugation at 500 rcf for 3 minutes, resuspended in PBS and counted. Cells were diluted in PBS to a concentration of 5×10^5 live cells per mL and transferred to black 96-well plates for assay, 60 μL per well. Test articles were diluted in PBS plus 0.5% DMSO, and 20 μL was added to each assay well. Compound was allowed to pre-incubate with cells with gentle shaking at 100 rpm for 60 minutes at 37° C. in a cell culture incubator maintained at 5% CO2, after which 20 μL of 500 μM H-Gly-Phe-AFC substrate (MP Biomedicals; Solon, OH) was added to each well. Plates were returned to the incubator with shaking at 100 rpm for 30 minutes, after which fluorescence was measured at Excitation/Emission 400/505 nm. % Inhibition was calculated from RFU values compared to control cell wells that received only PBS plus 0.5% DMSO. IC50 values for each compound were calculated via the XLFit (IDBS Version 5.3.1.3) Add-On to Microsoft Excel using the four parameter fit equation y=(A+((B-A)/(1+((C/x)^D)))), which appears as equation number 205 (4 Parameter Logistic Model or Sigmoidal Dose-Response Model) in XLFit.

[1] = recombinant human DPP1, H-Gly-Arg-AMC substrate 400 μM

SMILES | IC50 (human DPP1 enzyme; [1]) [nM] | IC50 (DPP1 in HL-60 cells) [nM] | IC50 (human DPP1 enzyme) [nM]
Cn1c(=O)oc2ccc(-c3ccc(C[C@@H](C#N)NC(=O)CNC(=O)c4cccs4)cc3)cc21 [Compound 239, N-[(1S)-1-cyano-2-[4-(3-methyl-2-oxo-1,3-benzoxazol-5-yl)phenyl]ethyl]-2-(thiophen-2-ylformamido)acetamide] |  |  | > 15
N#Cc1ccc(-c2ccc(C[C@@H](C#N)NC(=O)C3(N)CCOCC3)cc2)cc1 [Compound 246] | 5 to 15 | ≥ 2.5 | 

Second part, led by results:

IC50 (human DPP1 enzyme; [1]) [nM] | IC50 (DPP1 in HL-60 cells) [nM] | SMILES | IC50 (human DPP1 enzyme) [nM]
≥ 15 |  | Cn1c(=O)oc2ccc(-c3ccc(C[C@@H](C#N)NC(=O)CC(N)Cc4ccccc4O)cc3)cc21 (stereo partly drawn) [Compound 228, 3-amino-N-[(1S)-1-cyano-2-[4-(3-methyl-2-oxo-1,3-benzoxazol-5-yl)phenyl]ethyl]-4-(2-hydroxyphenyl)butanamide] | 
≥ 15 |  | Cn1c(=O)oc2ccc(-c3ccc(C[C@@H](C#N)NC(=O)CCOC(=O)c4cccs4)cc3)cc21 [Compound 244, 2-{[(1S)-1-cyano-2-[4-(3-methyl-2-oxo-1,3-benzoxazol-5-yl)phenyl]ethyl]carbamoyl}ethyl thiophene-2-carboxylate] | 
≥ 15 |  | Cn1c(=O)oc2ccc(-c3ccc(C[C@@H](C#N)NC(=O)COC(=O)c4cccs4)cc3)cc21 [Compound 245, (S)-2-((1-cyano-2-(4-(3-methyl-2-oxo-2,3-dihydrobenzo[d]oxazol-5-yl)phenyl)ethyl)amino)-2-oxoethyl thiophene-2-carboxylate] | 
